Measured affinities in a library of Ab-14 light chain variants

Reference: Li et al. 2023, doi:10.1038/s41467-023-39022-2. File: FLAb, binding data.

Antigen: PDVDLGDISGINAS, a 14-residue peptide of the SARS-CoV-2 spike HR2 region.

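The starting antibody came from a phage panning campaign against this peptide. These sequences belong to a second round, designed from the earlier measurements on random variants of the parent. Several design methods are mixed in this list. AlphaSeq pools MATa yeast showing the antibodies with MATalpha yeast showing the peptide. Mating (16 h, 30 °C) was followed by selection of diploids and sequencing of their barcodes. Scores were corrected for input abundance and mapped to Kd with protein pairs of known affinity run in the same pool. The assay was run in six technical replicates.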

The variants keep the heavy chain, the linker and the frameworks of Ab-14 (scFv order VH, a 15-residue (Gly4Ser)3 linker, VL).
VH: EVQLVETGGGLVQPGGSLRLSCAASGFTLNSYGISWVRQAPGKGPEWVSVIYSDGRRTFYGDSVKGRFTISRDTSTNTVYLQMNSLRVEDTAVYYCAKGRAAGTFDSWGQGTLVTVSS
VL: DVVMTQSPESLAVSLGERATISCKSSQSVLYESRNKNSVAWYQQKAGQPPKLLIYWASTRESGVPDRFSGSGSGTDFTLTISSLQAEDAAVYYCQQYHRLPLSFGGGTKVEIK

Sequences are complete VL domains. The read-out is the apparent dissociation constant on a log10 scale (nM): the lower, the stronger. A mean of the replicates is given; it leaves out those without a signal. "no signal" means that the variant was in the library but no mating with the target was seen in any replicate; the authors take this as a sign of poor binding, and no number exists. Three control strains display no target. For all light chain designs, 4% of the pairings with them gave a signal, with a median of 2.64 and one signal in twenty below 1.59, so weak values seen in few replicates may be background.

VL | mean, log10 nM | detected
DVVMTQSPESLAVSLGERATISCMMGLCQNGYYQQNNEIAWYQQKAGQPPKLLIYDVNERAMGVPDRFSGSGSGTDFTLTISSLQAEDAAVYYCQQYGRLPLSFGGGTKVEIK | 1.72 | 6 of 6
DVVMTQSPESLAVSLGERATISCHISQSFMTEQVWRNNIAWYQQKAGQPPKLLIYHQSTRETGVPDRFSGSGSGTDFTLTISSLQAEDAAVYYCQQYDRLPFSFGGGTKVEIK | 0.64 | 6 of 6
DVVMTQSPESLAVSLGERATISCKLPQGVLYESRNKNSVAWYQQKAGQPPKLLIYGASFRESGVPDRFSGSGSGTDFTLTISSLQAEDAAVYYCQQYHRLPLSFGGGTKVEIK | -0.03 | 6 of 6
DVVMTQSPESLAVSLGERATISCKLSGIMRVEMKNKSNIAWYQQKAGQPPKLLIYEMTTRGSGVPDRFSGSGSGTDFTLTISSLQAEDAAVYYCQQYDRLPLSFGGGTKVEIK | 1.56 | 6 of 6
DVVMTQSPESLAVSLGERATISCKQEQSVMGESRNKNSVAWYQQKAGQPPKLLIYNASTRMSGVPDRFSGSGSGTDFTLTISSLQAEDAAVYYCQQYHRLPLSFGGGTKVEIK | 0.63 | 6 of 6
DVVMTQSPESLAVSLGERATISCKSSQSWLYEERNKNSVAWYQQKAGQPPKLLIYWASTRESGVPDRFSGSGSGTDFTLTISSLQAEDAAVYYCQQYHRLPLPFGGGTKVEIK | no signal | 0 of 6
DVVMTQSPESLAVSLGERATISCKLSQSFLYESRMKNSVAWYQQKAGQPPKLLIYNASQRESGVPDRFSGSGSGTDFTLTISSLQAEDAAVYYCQQYHRLPLSFGGGTKVEIK | 0.08 | 6 of 6
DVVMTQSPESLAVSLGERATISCKMSQSVLMEGRNDNSVAWYQQKAGQPPKLLIYEASTREDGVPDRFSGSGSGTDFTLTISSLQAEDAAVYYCQQYHRLPLSFGGGTKVEIK | -0.05 | 6 of 6
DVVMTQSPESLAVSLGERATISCTISQSTYWESRNKNSVAWYQQKAGQPPKLLIYQTSTREAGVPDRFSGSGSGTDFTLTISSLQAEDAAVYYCQDYDRLPLSFGGGTKVEIK | 2.55 | 5 of 6
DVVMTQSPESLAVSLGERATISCHMKDEPGLGPQTYSSVAWYQQKAGQPPKLLIYHASILEPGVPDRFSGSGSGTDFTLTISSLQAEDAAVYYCQQYYRLPLMFGGGTKVEIK | 0.49 | 6 of 6
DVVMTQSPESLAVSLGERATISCKSSYSVLFESRNKNSVAWYQQKAGQPPKLLIYNASTRESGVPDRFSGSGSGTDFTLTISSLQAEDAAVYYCQQYHRLPLSFGGGTKVEIK | 1.24 | 6 of 6
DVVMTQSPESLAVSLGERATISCTIGQMFNGESRIRNSVAWYQQKAGQPPKLLIYQASTREQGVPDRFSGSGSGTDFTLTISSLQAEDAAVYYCQSYDRLPLAFGGGTKVEIK | 1.22 | 6 of 6
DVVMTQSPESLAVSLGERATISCKSSQSVTYESRNKNSVAWYQQKAGQPPKLLIYWASTRNEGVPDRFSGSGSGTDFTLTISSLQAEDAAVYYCQQPHRLPLSFGGGTKVEIK | no signal | 0 of 6
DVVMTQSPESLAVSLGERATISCKLMQSMGYESRNFNSVAWYQQKAGQPPKLLIYQASQRSSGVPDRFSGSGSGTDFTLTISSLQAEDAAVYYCQQYHRLPLSFGGGTKVEIK | 0.74 | 6 of 6
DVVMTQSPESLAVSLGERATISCMISQISSMGQFAKNSVAWYQQKAGQPPKLLIYQASQRNTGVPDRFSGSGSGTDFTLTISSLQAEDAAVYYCQQYDRLPLIFGGGTKVEIK | 0.53 | 6 of 6
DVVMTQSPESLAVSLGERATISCSSSQSVPYESGNKNSVAWYQQKAGQPPKLLIYWASTRESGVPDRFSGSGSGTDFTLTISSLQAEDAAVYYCQQYHRLPLSFGGGTKVEIK | 2.00 | 6 of 6
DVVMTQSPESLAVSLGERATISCKLSQSVLYESRNWNNVAWYQQKAGQPPKLLIYNASTRESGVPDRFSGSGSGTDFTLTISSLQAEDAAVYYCQQYHRLPLSFGGGTKVEIK | -0.50 | 6 of 6
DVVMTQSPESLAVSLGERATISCKSSQSVLIESRNKNSVAWYQQKAGQPPKLLIYAASTRESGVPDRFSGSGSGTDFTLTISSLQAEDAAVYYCFQYHRLPLSFGGGTKVEIK | 1.28 | 6 of 6

2 of these entries, quoted again:

{"VL": "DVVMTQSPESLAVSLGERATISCSSSQSVPYESGNKNSVAWYQQKAGQPPKLLIYWASTRESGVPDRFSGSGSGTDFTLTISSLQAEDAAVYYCQQYHRLPLSFGGGTKVEIK", "mean, log10 nM": "2.00", "detected": "6 of 6"}
{"VL": "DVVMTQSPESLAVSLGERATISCMMGLCQNGYYQQNNEIAWYQQKAGQPPKLLIYDVNERAMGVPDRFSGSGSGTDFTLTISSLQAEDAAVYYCQQYGRLPLSFGGGTKVEIK", "mean, log10 nM": "1.72", "detected": "6 of 6"}

The authors' rule: three or more of the six replicates give a measured affinity, fewer mean a poor binder. The range of this assay differs from that of the first round, and the authors advise against merging the two. The parent sequence was in this pool as ten entries: three were never detected, three once, and four in most replicates, with averages from 0.34 to 2.37.